For one data set, the target named is T1, [Gln^1]-FPP.
T1 chain: QEP

In the next data set the target is T2, [Gln^1]-TRH.
T2 chain: QHP

B1: recombinant human glutaminyl cyclase (QC) (protein)
chain: EEKNYHQPAILNSSALRQIAEGTSISEMWQNDLQPLLIERYPGSPGSYAARQHIMQRIQRLQADWVLEIDTFLSQTPYGYRSFSNIISTLNPTAKRHLVLACHYDSKYFSHWNNRVFVGATDSAVPCAMMLELARALDKKLLSLKTVSDSKPDLSLQLIFFDGEEAFLHWSPQDSLYGSRHLAAKMASTPHPPGARGTSQLHGMDLLVLLDLIGAPNPTFPNFFPNSARWFERLQAIEHELHELGLLKDHSLEGRYFQNYSYGGVIQDDHIPFLRRGVPVLHLIPSPFPEVWHTMDDNEENLDESTIDNLNKILQVFVLEYLHL
For orientation: KM means the substrate concentration at which the rate is half of its maximum. On to B1, for which the Michaelis-Menten constant (KM) was 87 µM in data set [Gln^1]-FPP and 90 µM in data set [Gln^1]-TRH.

The values above are taken from patent publication US7732162.
